Measurements published in patent publication US12662465B2, “EGFR inhibitors” (Blueprint Medicines Corporation, priority 2021, dated 2026).
pIC50: −log10 of the molar value.

The chains behind the UniProt entries cited, without tags or fusion partners. Where a name states a change or a piece, a line headed by the entry shows the natural chain unless it says otherwise. Residues count along the entry.
UniProt P00533, 25-1210 L858R limits assumed: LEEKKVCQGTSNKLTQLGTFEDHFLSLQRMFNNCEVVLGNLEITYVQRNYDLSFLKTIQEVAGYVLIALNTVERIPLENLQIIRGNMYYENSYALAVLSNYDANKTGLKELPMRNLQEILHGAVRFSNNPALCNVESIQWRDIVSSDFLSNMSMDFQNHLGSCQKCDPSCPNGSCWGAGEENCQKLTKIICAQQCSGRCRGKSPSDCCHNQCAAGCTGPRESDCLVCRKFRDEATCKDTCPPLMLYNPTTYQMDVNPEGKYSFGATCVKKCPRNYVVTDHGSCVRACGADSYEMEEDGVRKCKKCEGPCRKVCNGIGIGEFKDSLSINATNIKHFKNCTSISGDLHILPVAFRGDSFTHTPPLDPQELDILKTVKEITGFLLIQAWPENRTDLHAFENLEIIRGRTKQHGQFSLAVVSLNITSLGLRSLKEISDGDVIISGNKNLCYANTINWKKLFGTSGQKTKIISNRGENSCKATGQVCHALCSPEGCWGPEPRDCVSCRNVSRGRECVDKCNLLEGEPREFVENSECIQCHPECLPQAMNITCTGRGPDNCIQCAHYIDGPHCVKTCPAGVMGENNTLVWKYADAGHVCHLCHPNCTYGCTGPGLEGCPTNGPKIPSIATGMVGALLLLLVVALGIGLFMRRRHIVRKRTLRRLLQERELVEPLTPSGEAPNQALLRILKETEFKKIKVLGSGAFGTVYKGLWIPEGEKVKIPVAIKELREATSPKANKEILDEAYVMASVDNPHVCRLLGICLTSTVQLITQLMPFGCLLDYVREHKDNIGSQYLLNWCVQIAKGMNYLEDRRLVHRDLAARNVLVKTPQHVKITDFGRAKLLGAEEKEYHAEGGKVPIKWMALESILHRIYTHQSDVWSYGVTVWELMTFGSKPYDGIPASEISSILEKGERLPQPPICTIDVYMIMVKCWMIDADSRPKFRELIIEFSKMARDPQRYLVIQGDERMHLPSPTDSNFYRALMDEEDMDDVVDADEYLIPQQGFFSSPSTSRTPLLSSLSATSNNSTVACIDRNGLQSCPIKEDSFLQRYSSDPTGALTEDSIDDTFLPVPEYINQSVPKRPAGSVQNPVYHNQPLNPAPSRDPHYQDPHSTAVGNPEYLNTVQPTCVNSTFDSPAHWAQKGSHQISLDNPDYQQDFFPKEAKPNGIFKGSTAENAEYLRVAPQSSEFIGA

Columns and labels:
[1] = biological target: intracellular phosphorylation of EGFR (Tyr1068) in PC-9 cells (Ex19Del) (Homo sapiens, UniProt P00533, DEL746-750); test: PC-9 pEGFR AlphaLISA assay; assay type: cell-based; conditions: read-out: Ext pEGFR_PC-9 Ex19Del IC50, 4 hours compound incubation
[2] = biological target: EGFR L858R (Homo sapiens, UniProt P00533, L858R); test: Biochemical EGFR inhibition assay (Caliper mobility shift), EGFR L858R; conditions: read-out: Enz EGFR_L858R IC50; 1.0 mM ATP or ATP Km; room temperature (25° C.)
[3] = biological target: EGFR (d746-750) (Homo sapiens, UniProt P00533, DEL746-750); test: Biochemical EGFR inhibition assay (Caliper mobility shift), EGFR (d746-750); conditions: read-out: Enz EGFR_Exon19-del746-750 IC50; 1.0 mM ATP or ATP Km; room temperature (25° C.)

Measured: pIC50

C[C@@H](Oc1cc(-c2cnn(C)c2)cc2ncnc(Nc3ccc4ncccc4c3F)c12)C1CCOC1 (single isomer, unassigned)
> 8.00: all assays above
